In patent publication US8765775B2, “Anti-angiogenic compounds” (Universitaet Zuerich, priority 2008, dated 2014):

Target: T1, EphB4 (Homo sapiens, UniProt P54760)
T1 sequence (P54760 16-987): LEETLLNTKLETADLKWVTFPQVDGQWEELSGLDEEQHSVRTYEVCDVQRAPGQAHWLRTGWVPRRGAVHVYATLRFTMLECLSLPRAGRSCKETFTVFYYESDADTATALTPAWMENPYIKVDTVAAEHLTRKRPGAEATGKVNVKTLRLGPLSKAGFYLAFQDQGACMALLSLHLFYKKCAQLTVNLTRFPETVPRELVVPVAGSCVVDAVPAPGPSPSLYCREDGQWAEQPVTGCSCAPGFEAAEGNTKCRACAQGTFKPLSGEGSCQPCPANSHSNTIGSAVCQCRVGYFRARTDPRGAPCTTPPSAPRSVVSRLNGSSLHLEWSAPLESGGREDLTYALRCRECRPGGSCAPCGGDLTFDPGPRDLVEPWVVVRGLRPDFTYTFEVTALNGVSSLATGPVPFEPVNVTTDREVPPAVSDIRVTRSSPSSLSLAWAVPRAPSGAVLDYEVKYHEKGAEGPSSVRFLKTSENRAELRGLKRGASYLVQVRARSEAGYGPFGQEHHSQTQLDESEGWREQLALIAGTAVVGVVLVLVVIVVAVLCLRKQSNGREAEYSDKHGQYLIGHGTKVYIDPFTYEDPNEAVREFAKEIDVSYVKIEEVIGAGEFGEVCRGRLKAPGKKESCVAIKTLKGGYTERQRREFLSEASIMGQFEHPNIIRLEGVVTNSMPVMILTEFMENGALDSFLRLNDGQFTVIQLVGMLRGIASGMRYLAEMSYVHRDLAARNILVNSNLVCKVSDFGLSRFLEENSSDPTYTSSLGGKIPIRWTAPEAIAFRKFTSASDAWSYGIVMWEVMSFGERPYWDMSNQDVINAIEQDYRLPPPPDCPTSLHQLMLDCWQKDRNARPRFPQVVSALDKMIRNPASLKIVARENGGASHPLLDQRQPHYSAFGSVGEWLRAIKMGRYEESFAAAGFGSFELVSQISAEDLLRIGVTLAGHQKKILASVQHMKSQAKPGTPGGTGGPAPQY
Test: Panvera Z'Lyte FRET-based enzymatic assay

Cn1c(=O)[nH]c(=O)c2c1nc1n(CCCCO)c(-c3ccccc3)cn21 [Compound 2]
Ligand efficiency LE (−ΔG exp binding/HAC): 0.3 kcal·mol^−1 per heavy atom
